In PubChem BioAssay AID2551 (National Center for Advancing Translational Sciences (NCATS), 2010) one finds activity change, negative = inhibition and Potency data, which are given here for 87 compounds.

Sequences of proteins named here, by UniProt entry; tags and fusion partners are left off.
UniProt P51450, whole entry: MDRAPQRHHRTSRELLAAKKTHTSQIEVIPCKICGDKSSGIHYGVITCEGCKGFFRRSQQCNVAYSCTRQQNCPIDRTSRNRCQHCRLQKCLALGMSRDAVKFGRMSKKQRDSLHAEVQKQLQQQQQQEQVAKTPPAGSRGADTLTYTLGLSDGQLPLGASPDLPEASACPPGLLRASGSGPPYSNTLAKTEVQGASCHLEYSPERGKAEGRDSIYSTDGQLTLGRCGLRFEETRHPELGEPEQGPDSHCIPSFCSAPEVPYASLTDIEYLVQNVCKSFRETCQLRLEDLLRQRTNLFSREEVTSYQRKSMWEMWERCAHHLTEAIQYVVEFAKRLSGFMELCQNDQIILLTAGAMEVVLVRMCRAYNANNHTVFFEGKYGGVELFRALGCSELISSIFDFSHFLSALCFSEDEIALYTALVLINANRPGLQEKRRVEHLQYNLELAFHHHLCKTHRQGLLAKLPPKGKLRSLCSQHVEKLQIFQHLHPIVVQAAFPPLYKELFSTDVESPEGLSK

Only a part is listed here, and it is no random draw. Inconclusive results are not listed. A call without a number means that no potency is given here. Calls of active or inactive are those of the source. Calls follow the shape of the dose curve; as a rule, active = well fitted inhibition curve with a large enough effect; inconclusive = small, poorly fitted or top-dose-only effect, or effect the other way; inactive = no such curve, though single readings can be large or run the other way.
Potency is read from the fitted curve at half-maximal effect.

For this test, the target named is Nuclear receptor ROR-gamma (Mus musculus) (UniProt P51450). In words: qHTS for inhibitors of ROR gamma transcriptional activity. Also: nearly all actives have a fitted effect of over 60% in size. As to conditions: Drosophila S2 Gal4-RORgamma UAS-luciferase reporter, 20 h; series mostly up to 53.6 µM. Background: In qHTS, concentration-response curves come from the screen itself.
For `COc1ccc(OP(C)(=O)Nc2cccc(Br)c2)cc1` (configuration not stated), the activity change, negative = inhibition entry is “inactive”.
Same read-out and setting: to `COc1ccc(NP(C)(=O)Oc2ccccc2OC)cc1` (configuration not stated) belongs “inactive”.
On the same count and under the same terms, to `CN(C)CCOC(=O)C(O)(c1ccccc1)C1CCCCC1` (configuration not stated) belongs “inactive”.
The same measure, in the same setting: the result for `Cc1ccc([N+](=O)[O-])c([N+](=O)[O-])c1` reads “inactive”.
As to `O=[N+]([O-])c1ccc(OP2(=O)COCCO2)cc1` (configuration not stated), the activity change, negative = inhibition entry is “inactive”.
On the same count and under the same terms, to `CP(=O)(Nc1ccc(SC(F)(F)F)cc1)Oc1ccc(F)cc1` (configuration not stated) belongs “inactive”; to `CCOP(=O)(CC)OCC`, “inactive”; to `CCOP(C)(=S)SCC(=O)NC(C)(CC)C(=O)O` (configuration not stated), “inactive”.
Same read-out and setting: to `CP(=O)(Nc1ccc2c(c1)OCCO2)Oc1ccccc1` (configuration not stated) belongs “inactive”.
Still for that read-out and setting: the result for `CCN(CCCl)Cc1ccccc1C` reads “inactive”; that for `Cc1ccccc1NP(C)(=O)Nc1ccccc1C`, inactive: 14.1% [at 0.365 µM]; that for `CC(C)c1ccc(OP(C)(=O)Nc2ccc(SC(F)(F)F)cc2)cc1` (configuration not stated), “inactive”.
Take `CP(=O)(Nc1ccccc1F)Oc1ccccc1` (configuration not stated): the activity change, negative = inhibition result is “inactive”.
For the compound `O=C(OCCN1CCN(CCOCc2ccccc2)CC1)C(O)(c1ccccc1)c1ccccc1`, the activity change, negative = inhibition result is “inactive”.
The same measure, in the same setting: to `Cc1cccc([N+](=O)[O-])c1[N+](=O)[O-]` belongs “inactive”; to `CCC(C)(OO)OOC(C)(CC)OO` (configuration not stated), “inactive”; to `COc1ccc(OP(C)(=O)Nc2ccc(SC(F)(F)F)cc2)cc1` (configuration not stated), “inactive”.
On the same count and under the same terms, to `CCOC(=O)c1ccc(NP(C)(=O)Oc2ccc(F)cc2)cc1` (configuration not stated) belongs “inactive”.
Still for that read-out and setting: the result for `CCN(CC)CCCOC(=O)C(O)(c1ccccc1)C1CCCCC1` (configuration not stated) reads “inactive”.
As to `CP(=O)(Nc1ccccc1)Oc1ccc(F)cc1` (configuration not stated), the activity change, negative = inhibition result was “inactive”.
On the same count and under the same terms, to `Cc1cc(C)cc(OP(C)(=O)Nc2cccc(C(F)(F)F)c2)c1` (configuration not stated) belongs “inactive”.
On the same count and under the same terms, to `COc1ccc(OP(C)(=O)Nc2ccccc2Br)cc1` (configuration not stated) belongs “inactive”; to `COc1ccccc1OP(C)(=O)Nc1ccc(C)c(C)c1` (configuration not stated), “inactive”; to `CP(=O)(OCCOc1ccccc1)OCCOc1ccccc1`, “inactive”.
On the same count and under the same terms, the result for `CP(=O)(Nc1ccc(Cl)cc1Cl)Oc1ccccc1` (configuration not stated) reads “inactive”; that for `COc1ccccc1OP(C)(=O)Nc1ccc(Br)cc1` (configuration not stated), “inactive”; that for `CN(C)CCOC(=O)C(O)(c1ccccc1)C1CCCC1` (configuration not stated), “inactive”.
For `COc1ccc(OP(C)(=O)Nc2ccccn2)cc1` (configuration not stated), the activity change, negative = inhibition result was “inactive”.
Same read-out and setting: the result for `O=[N+]([O-])c1cc([N+](=O)[O-])c(Nc2ccccn2)c([N+](=O)[O-])c1` reads “inactive”.
The same measure, in the same setting: to `CCc1ccc(OP(C)(=O)O)cc1` belongs “inactive”; to `COc1ccccc1OP(C)(=O)Nc1ccc(C)cc1C` (configuration not stated), “inactive”.
Regarding `CP(=O)(Nc1ccccn1)Oc1ccccc1` (configuration not stated), the activity change, negative = inhibition was inactive: -12% [at 0.365 µM].
Same read-out and setting: to `COc1ccc(OP(C)(=O)Nc2ccc(Br)cc2)cc1` (configuration not stated) belongs “inactive”; to `CCN(CC)CC(O)COC(=O)C(O)(c1ccccc1)C1CCCCC1` (configuration not stated), “inactive”; to `CCc1ccc(OP(C)(=O)Nc2cccnc2)cc1` (configuration not stated), “inactive”.
On the same count and under the same terms, the result for `CP(=O)(Oc1ccccc1)N1CCOC1=O` (configuration not stated) reads “inactive”.
Turning to `O=C(OCCCN1CCCC1)C(O)(c1ccccc1)C1CCCCC1` (configuration not stated), the activity change, negative = inhibition entry was “inactive”.
Still for that read-out and setting: to `OCCSCCO` belongs “inactive”.
Still for that read-out and setting: the result for `COc1ccccc1OP(C)(=O)Nc1c(C)n(C)n(-c2ccccc2)c1=O` (configuration not stated) reads “inactive”.
With `CP(=O)(Nc1ccc(Cl)cc1)Oc1ccc(F)cc1` (configuration not stated), the activity change, negative = inhibition result is “inactive”.
For the compound `CC(C)(C)c1ccc(OP(C)(=O)O)cc1`, the activity change, negative = inhibition result is “inactive”.
As for `COc1ccccc1OP(C)(=O)Nc1ccccc1Br` (configuration not stated), the activity change, negative = inhibition entry is “inactive”.
`CN(C)C(=O)c1c([N+](=O)[O-])cc([N+](=O)[O-])cc1[N+](=O)[O-]`: the Potency was active: 3.55 µM.
For `CP(=O)(OC12CC3CC(CC(C3)C1)C2)OC12CC3CC(CC(C3)C1)C2`, the activity change, negative = inhibition entry was “inactive”.
Take `CCOC(=O)c1ccc(NP(C)(=O)Oc2ccc(Cl)cc2)cc1` (configuration not stated): the activity change, negative = inhibition entry was “inactive”.
Still for that read-out and setting: to `CC(C)OP(=O)(F)OC(C)C` belongs “inactive”.
Same read-out and setting: the result for `C/C1=C2N=C(/C=C3N=C(/C(C)=C4\[N-][C@@](C)([C@H]5N=C1[C@@](C)(CCC(=O)NC[C@H](C)OP(=O)([O-])O[C@@H]1[C@H](O)[C@H](n6cnc7cc(C)c(C)cc76)O[C@@H]1CO)[C@@H]5CC(N)=O)[C@](C)(CC(N)=O)[C@H]4CCC(N)=O)[C@@](C)(CC(N)=O)[C@@H]\3CCC(N)=O)C(C)(C)[C@@H]/2CCC(N)=O.[C-]#N.[Co+3]` reads inactive: 1.51% [at 2.98 µM]; that for `CP(=S)(Nn1cnnc1)Oc1ccccc1` (configuration not stated), “inactive”.
The same measure, in the same setting: the result for `COc1ccccc1OP(C)(=O)Nc1ccccc1` (configuration not stated) reads “inactive”; that for `CP(=O)(Nc1ccccc1Br)Oc1ccccc1` (configuration not stated), “inactive”.
With `CP(=O)(Oc1ccccc1)OC(c1ccccc1)C(F)(F)F` (configuration not stated), the activity change, negative = inhibition result is “inactive”.
The same measure, in the same setting: the result for `CP(=O)(Nc1ccc(SC(F)(F)F)cc1)Oc1ccc(Cl)cc1` (configuration not stated) reads “inactive”; that for `Cc1cc(C)cc(OP(C)(=O)Nc2ccc(SC(F)(F)F)cc2)c1` (configuration not stated), “inactive”.
Consider `CCc1ccc(OP(C)(=O)N2CCN(c3ccc([N+](=O)[O-])cc3)CC2)cc1` (configuration not stated), for which the activity change, negative = inhibition entry was “inactive”.
Still for that read-out and setting: the result for `CP(=O)(NC(=O)Nc1ccccc1)Oc1ccccc1` (configuration not stated) reads inactive: -9.16% [at 10 µM]; that for `CCOP(C)(=S)SCC(=O)NC(C)C(=O)O` (configuration not stated), “inactive”; that for `CN(C)CCS`, “inactive”.
In the case of `CCOC(=O)c1ccc(NP(C)(=O)Oc2ccc(OC)cc2)cc1` (configuration not stated), the activity change, negative = inhibition result was “inactive”.
Still for that read-out and setting: the result for `CP(=O)(Nc1ccccn1)Oc1ccc(Cl)cc1` (configuration not stated) reads “inactive”; that for `CCN(CC)CCCOC(=O)C(O)(c1ccccc1)c1ccccc1`, “inactive”; that for `O=C(O)C(O)(c1ccccc1)c1ccccc1`, “inactive”.
As to `Cc1cccc(C)c1OP(C)(N)=O` (configuration not stated), the activity change, negative = inhibition result is “inactive”.
Still for that read-out and setting: to `O=[N+]([O-])c1ccc2c(c1)C=Nc1ccccc1O2` belongs “inactive”.
Consider `CCOC(=O)c1ccc(NP(C)(=O)Oc2ccccc2)cc1` (configuration not stated), for which the activity change, negative = inhibition result was “inactive”.
Consider `Cc1ccc(NP(C)(=O)Oc2ccccc2)c(C)c1` (configuration not stated), for which the activity change, negative = inhibition result was “inactive”.
On to `COc1ccccc1OP(C)(=O)Nc1ccc(C)cc1` (configuration not stated), for which the activity change, negative = inhibition entry is “inactive”.
Still for that read-out and setting: to `COc1ccc(OP(C)(=O)Nc2cccc(F)c2)cc1` (configuration not stated) belongs “inactive”.
As to `COc1ccccc1OP(C)(=O)Nc1cc(Cl)ccc1C` (configuration not stated), the activity change, negative = inhibition entry is “inactive”.
On the same count and under the same terms, to `Cc1cc(C)cc(OP(C)(N)=O)c1` (configuration not stated) belongs “inactive”; to `O=[N+]([O-])c1cccc([N+](=O)[O-])c1`, “inactive”.
On the same count and under the same terms, the result for `Cc1ccc([N+](=O)[O-])cc1[N+](=O)[O-]` reads “inactive”; that for `O=[N+]([O-])OCC(CO[N+](=O)[O-])(CO[N+](=O)[O-])CO[N+](=O)[O-]`, “inactive”.
As for `CC1=NCCc2c1[nH]c1ccccc21.O=[N+]([O-])c1cc([N+](=O)[O-])c(O)c([N+](=O)[O-])c1`, the activity change, negative = inhibition was inactive: 0.787% [at 10 µM].
On the same count and under the same terms, to `COc1ccccc1OP(C)(=O)Nc1cccc(Br)c1` (configuration not stated) belongs “inactive”.
On the same count and under the same terms, the result for `Cc1cc(C)cc(OP(C)(=O)Nc2ccc(C)cc2C)c1` (configuration not stated) reads “inactive”; that for `CCOC(=O)c1ccc(NP(C)(=O)Oc2cc(C)cc(C)c2)cc1` (configuration not stated), “inactive”; that for `CP(=O)(Nc1cccc(Br)c1)Oc1ccccc1` (configuration not stated), “inactive”.
On the same count and under the same terms, the result for `Cc1cc(C)cc(OP(C)(=O)Nc2ccccn2)c1` (configuration not stated) reads “inactive”.
For the compound `Cc1ccc(C)c(NP(C)(=O)Oc2ccccc2)c1` (configuration not stated), the activity change, negative = inhibition result was “inactive”.
With `O=[N+]([O-])c1cc([N+](=O)[O-])c(-n2nnc3ccccc32)c([N+](=O)[O-])c1`, the activity change, negative = inhibition result was “inactive”.
The same measure, in the same setting: the result for `CC(C)N(CCCl)C(C)C` reads “inactive”; that for `Cc1nc2ccc3ccccc3c2s1.O=[N+]([O-])c1cc([N+](=O)[O-])c(O)c([N+](=O)[O-])c1`, “inactive”; that for `O=[N+]([O-])c1cc([N+](=O)[O-])c(Nc2nnnn2CCO)c([N+](=O)[O-])c1`, “inactive”.
The same measure, in the same setting: to `CN1CCCCC1COC(=O)C1(O)c2ccccc2CCc2ccccc21` (configuration not stated) belongs “inactive”.
On the same count and under the same terms, to `COc1ccccc1OP(C)(=O)Nc1c(C)cccc1C` (configuration not stated) belongs “inactive”.
As for `CP(=O)(Nc1ccc(SC(F)(F)F)cc1)Oc1ccccc1` (configuration not stated), the activity change, negative = inhibition entry was “inactive”.
Still for that read-out and setting: to `CCCOc1ccc(NP(C)(=O)Oc2ccc(Cl)cc2)cc1` (configuration not stated) belongs “inactive”.
